Experimental data: patent US11092596B2, “Material and method to screen proteasome stimulators” (Purdue Research Foundation, priority 2017, dated 2021)

Key:
[1] = target: T1, chymotrypsin-like activity of the 20S CP (Homo sapiens, UniProt P28074); experiment: Kinetic assay, Suc-LLVY-AMC reporter hydrolysis by purified 20S CP; format: biochemical; details: 25 μM compound, triplicate; hit = at least 50% increase
Procedure: (§1) Plate preparation for the kinetic assay was performed similarly for all assays. All 96-well plates contained the following in triplicate: reporter background, containing reporter only, and control wells, containing reporter and purified 20S CP. It was determined that each well will contain a total volume of 50 μL. To each well was added 40 μL of the coumarin or FRET reporters (in Tris-HCl, 50 mM, pH 7.7). To the reporter background wells was added 7.5 μL Tris-HCl and 2.5 μL of the solvent in which the compound of interest was dissolved or diluted. Similarly, to the control wells was added 2.5 μL Tris-HCl and 2.5 μL of the solvent in which the compound of interest was dissolved or diluted. […] Immediately prior to running the assay on the Synergy 4 Plate Reader, 5 μL purified 20S proteasome (90 nM in Tris-HCl) was added to the control and test wells.
(§2) The Synergy 4 Plate Reader was set to heat the plate at 37° C. and read fluorescence every 2 min over a 40 min period. […]
Sodium dodecyl sulfate (SDS) was used to test the effect stimulating the 20S proteasome has on the hydrolysis of the FRET reporters. The appropriate concentration of SDS to use in the kinetic assay was determined using the small chymotrypsin-like activity reporter, Suc-LLVY-AMC (SEQ ID NO: 4). […]
The Synergy 4 Plate Reader was set to heat the plate at 37° C. and read fluorescence every 2 min over a 1 hr period. […]

[2] = target: chymotrypsin-like activity of the 26S proteasome (Homo sapiens, UniProt P28074); experiment: Kinetic assay, CT-L FRET reporter with 26S proteasome; format: biochemical; details: 25 μM compound
Procedure: Compounds 1, 2, and 3 were screened with the 26S proteasome in triplicate using the CT-L FRET reporter.
To each well was added 40 μL 20 μM CT-L FRET reporter (in Tris-HCl, 50 mM, pH 7.7). To the reporter background wells was added 5 μL Tris-HCl and 5 μL 1:1 Tris-HCl:DMSO. Similarly, to the control wells was added 5 μL 1:1 Tris-HCl:DMSO. To the test wells was added 2.5 μL Tris-HCl and 2.5 μL of a 500 μM solution of the compound of interest in DMSO. […] Immediately prior to running the assay on the Synergy 4 Plate Reader, 5 μL purified 26S proteasome (62.5 μg/mL in Tris-HCl) was added to the control and test wells.
The assay was performed using the Synergy 4 plate reader as described for the general screening kinetic assay procedure.

[3] = target: caspase-like activity of the 20S CP (Homo sapiens, UniProt P28072); experiment: Kinetic assay, CP-L FRET reporter hydrolysis by purified 20S CP; details: 25 μM compound
Procedure: Plate preparation for the kinetic assay was performed similarly for all assays. All 96-well plates contained the following in triplicate: reporter background, containing reporter only, and control wells, containing reporter and purified 20S CP. It was determined that each well will contain a total volume of 50 μL. To each well was added 40 μL of the coumarin or FRET reporters (in Tris-HCl, 50 mM, pH 7.7). To the reporter background wells was added 7.5 μL Tris-HCl and 2.5 μL of the solvent in which the compound of interest was dissolved or diluted. Similarly, to the control wells was added 2.5 μL Tris-HCl and 2.5 μL of the solvent in which the compound of interest was dissolved or diluted. To the test wells was added 2.5 μL Tris-HCl and 2.5 μL of the compound of interest at a predetermined concentration. Immediately prior to running the assay on the Synergy 4 Plate Reader, 5 μL purified 20S proteasome (90 nM in Tris-HCl) was added to the control and test wells.
as §2
To each well was added 40 μL 20 μM CP-L FRET reporter (in Tris-HCl, 50 mM, pH 7.7). […] Immediately prior to running the assay on the Synergy 4 Plate Reader, 5 μL purified 20S proteasome (90 nM in Tris-HCl) was added to the control and test wells.

[4] = target: trypsin-like activity of the 20S CP (Homo sapiens, UniProt Q99436); experiment: Kinetic assay, T-L FRET reporter hydrolysis by purified 20S CP; format: biochemical; details: 25 μM compound
Procedure: as §1, §2
Stimulation of the 20S proteasome with SDS was determined using both the coumarin and FRET reporters for the chymotrypsin-like and trypsin-like activities of the 20S CP. […] Immediately prior to running the assay on the Synergy 4 Plate Reader, 5 μL purified 20S proteasome (90 nM in Tris-HCl) was added to the control and test wells. […]

[5] = target: T1, chymotrypsin-like activity of the 20S CP; experiment: Kinetic assay, CT-L FRET reporter hydrolysis by purified 20S CP; format: biochemical; details: read-out: EC50 (concentration of half of the maximum stimulation) for 20S CP stimulation, dose response 0.78125-400 μM, triplicate

Structure (SMILES): O=c1cccc2n1CC1CC2CN(c2nc(N3CCCC3)nc(N3CCCC3)n2)C1 (stereo not drawn)
- primary hit status with the 4-amino acid reporter Suc-LLVY-AMC [1]: would not have been considered primary hits
- ability to stimulate the 26S proteasome's CT-L activity [2]: showed any stimulation ability
- increase in 26S stimulation [2]: 44%
- effect on the caspase-like activity of the 20S CP [3]: did not affect
- effect on the trypsin-like activity of the 20S CP [4]: did not affect
- EC50 [5]: 10 µM
